Measured values taken from patent US9192552B2, “Personal care compositions with improved solubility of a solid UV active” (priority 2011, dated 2015).

What was measured:
[1] = Protocol: (§1) In the testing provided below, “soluble” (or “solubilize”), in relation to the solubility of a solid solute being tested, means that no visible crystals may be seen after a prescribed storage period at a storage condition. The storage period can vary. Suitable storage periods include about 24 hours, about 1 week, and about 30 days. Suitable storage conditions include ambient conditions or cold storage at 5° C. (approximately 1 atm). In certain embodiments, solubility may be determined after a 24 hour storage period at ambient conditions. In other embodiments, solubility may be determined after 20 days in cold storage. Other testing parameters may include storage for prolonged time periods (e.g., 30 day, 50 days, 60 days, 90 days) and at variable temperatures (e.g., 5° C., 50° C.).
The solvency of an isosorbide diester within the scope of the present invention was tested against two conventional, industry standard solvents. […] Various ratios of the solute:solvent were prepared by mixing solvents and the solid sunscreen (solute) and heating to 70° C. Upon reaching 70° C., the examples may be mixed for about 10 minutes. The mixtures are placed in a covered vial and cooled to the storage temperature. Solubility was evaluated for samples stored 24 hours after mixing at room temperature. […]

[2] = remark: listed apart in the source
Protocol: as §1
The solvency of an isosorbide diester within the scope of the present invention was tested against two conventional, industry standard solvents. […] Solubility was also evaluated for samples stored for 7 day at 5° C. followed by equilibration to ambient conditions.

- Solubility at Solute:Solvent Ratio 1:3 [1]: S
- Solubility at Solute:Solvent Ratio 1:4 [1]: S
- Solubility at Solute:Solvent Ratio 1:4 [2]: S
- Solubility at Solute:Solvent Ratio 1:6 [2]: S
- Solubility at Solute:Solvent Ratio 1:8 [2]: S
Substance: C12-15 alkyl benzoate

Read-outs that look alike come from different tables or passages of the source.
